The values below come from patent publication EP0854927B1.

pEC50: −log10 of the molar value.

The assay addresses G-actin (UniProt P68135). The assay is described as follows: actin binding ELISA: G-actin captured on GC globulin-coated wells, bound DNase I detected with anti-human DNase I polyclonal antibody-HRP. (In an ELISA, binding on a coated surface is turned into a signal by an enzyme label.)

“Pulmozyme® human DNase I (Genentech, Inc.) (enzyme)”: the pEC50 (commonly the EC50 on a negative log10 scale, so that one unit is a factor of ten) is 10.17.
The result for native human DNase I (enzyme) reads 10.06.
